How the values were obtained:
IRAK4 protein = IRAK4 protein (Homo sapiens, UniProt Q9NWZ3); experiment: IRAK4 protein degradation in THP1 cells (Western blot); format: cell-based; conditions: 24 h
[1] = system: secretion levels of IL-6 in PBMC cells; experiment: Inhibition of LPS+IL-1β-induced IL-6 secretion in PBMC (IL-6 ELISA); conditions: human PBMC, 24 h compound pre-incubation, 20 h stimulation

Chains of the proteins cited; added tags and fusions are not shown.
UniProt Q9NWZ3, whole entry: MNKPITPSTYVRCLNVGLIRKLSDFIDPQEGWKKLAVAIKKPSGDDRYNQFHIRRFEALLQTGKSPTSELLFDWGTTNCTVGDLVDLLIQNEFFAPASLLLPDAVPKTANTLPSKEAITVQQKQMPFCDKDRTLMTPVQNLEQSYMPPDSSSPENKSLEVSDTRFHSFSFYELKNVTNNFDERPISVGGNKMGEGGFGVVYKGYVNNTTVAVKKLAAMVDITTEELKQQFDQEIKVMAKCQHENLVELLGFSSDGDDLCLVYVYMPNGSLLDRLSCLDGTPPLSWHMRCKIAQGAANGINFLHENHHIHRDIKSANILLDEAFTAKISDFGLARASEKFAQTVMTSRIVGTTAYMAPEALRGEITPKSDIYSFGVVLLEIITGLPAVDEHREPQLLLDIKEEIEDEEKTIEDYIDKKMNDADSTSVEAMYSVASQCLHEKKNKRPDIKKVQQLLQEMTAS

DC50 (IRAK4 protein): < 0.1 nM
Compound: Cc1nn(C2CCC(=O)NC2=O)c2cccc(N3CCN(C[C@H]4CC[C@H](n5cc6cc(NC(=O)c7cnn8cccnc78)c(N(C)C)cc6n5)CC4)CC3)c12 (relative stereo)
IC50 [1]: 34.2 nM
